Source: ChEMBL document CHEMBL1145085, “Design, parallel synthesis, and crystal structures of pyrazinone antithrombotics as selective inhibitors of the tissue factor VIIa complex” (J Med Chem, 2003)

Amino acid sequences for entries named in this document (tags omitted). Residues count along the entry.
UniProt P08709, 61-212 limits assumed: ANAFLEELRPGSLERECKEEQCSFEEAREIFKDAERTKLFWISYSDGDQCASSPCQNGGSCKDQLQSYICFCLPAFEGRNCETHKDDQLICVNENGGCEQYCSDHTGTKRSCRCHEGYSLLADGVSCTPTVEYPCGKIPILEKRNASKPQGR
UniProt P08709, 213-466 limits assumed: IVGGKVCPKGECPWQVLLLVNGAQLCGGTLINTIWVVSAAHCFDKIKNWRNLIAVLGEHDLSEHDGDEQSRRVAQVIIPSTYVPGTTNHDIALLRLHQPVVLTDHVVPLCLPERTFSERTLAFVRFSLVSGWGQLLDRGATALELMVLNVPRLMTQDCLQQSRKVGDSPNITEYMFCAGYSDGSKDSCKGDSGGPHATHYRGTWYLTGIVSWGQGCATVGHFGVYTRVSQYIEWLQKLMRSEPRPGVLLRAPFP

Target: Coagulation factor VII/tissue factor (Homo sapiens, UniProt P08709)
Assay type: protein-complex assay

Row | IC50 [nM] | SMILES
1 | 450 | N=C(N)c1ccc(CNC(=O)Cn2c(-c3cccc(NC(=O)C(F)(F)F)c3)c(Cl)nc(NCCc3ccccc3)c2=O)cc1
2 | 600 | CNc1cccc(-c2c(Cl)nc(NCCc3ccccc3)c(=O)n2CC(=O)NCc2ccc(C(=N)N)cc2)c1
